# Ab-14 light chain CDR variants: yeast mating affinities

Data: MIT Lincoln Laboratory AlphaSeq set, Engelhart et al. 2022, doi:10.1038/s41597-022-01779-4, as distributed in FLAb.

All variants were tested on one target, the spike HR2 peptide PDVDLGDISGINAS (SARS-CoV-2).

Ab-14 is the parent antibody, in scFv form: VH, then the linker GGGGSGGGGSGGGGS, then VL. The heavy chain is unchanged in all variants.
VH: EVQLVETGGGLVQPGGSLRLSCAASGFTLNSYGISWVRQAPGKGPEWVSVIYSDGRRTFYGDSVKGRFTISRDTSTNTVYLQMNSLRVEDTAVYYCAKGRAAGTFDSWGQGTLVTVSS
VL: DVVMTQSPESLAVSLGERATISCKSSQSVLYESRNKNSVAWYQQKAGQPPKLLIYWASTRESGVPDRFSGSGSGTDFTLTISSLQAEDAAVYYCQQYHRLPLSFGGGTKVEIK

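The starting antibody came from a phage panning campaign against this peptide. The library (AAYL50) carries one to three amino acid substitutions per variant, with no insertions or deletions. In AlphaSeq, yeast of one mating type display the scFv and yeast of the other type display the target. The frequency of each diploid, read from paired DNA barcodes, reflects how well the two displayed proteins bind. A regression on co-assayed BCL2-family reference pairs converts the normalised counts of each replicate to an apparent Kd. Each pool was mated in three replicate cultures.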

The whole VL of each variant is written out.
Values are log10 of the apparent Kd in nM; lower means stronger binding.
Averages over replicates are reported, and they cover detected replicates only.
"n.d." means that the variant was in the library but no mating with the target was seen in that replicate; the authors take this as a sign of poor binding, and no number exists.
Three control strains display no target. For library AAYL50, 18% of the pairings with them gave a signal, with a median of 4.19 and one signal in twenty below 2.99, so weak values seen in few replicates may be background. The control count says in how many pairings with the empty strains this scFv gave a signal, with their mean in brackets.

VL,"replicates, log10 nM","mean, log10 nM",signal with controls
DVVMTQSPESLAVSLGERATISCNSSQSVLYESRNKNSEAWYQQKAGQPPKLLIYGASTRESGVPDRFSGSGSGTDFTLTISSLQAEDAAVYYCQQYHRLPLSFGGGTKVEIK,n.d. n.d. n.d.,n.d.,1 of 9 (2.72)
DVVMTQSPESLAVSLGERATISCTSSQSVHYESRNKNSVAWYQQKAGQPPKLLIYWASTRESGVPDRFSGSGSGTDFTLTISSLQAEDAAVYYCQQYHRLPLSFGGGTKVEIK,2.48 1.74 2.35,2.19,3 of 9 (3.92)
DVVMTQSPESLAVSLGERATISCKSSQSVLYESRNPNSGAWYQQKAGQPPKLLIYWASTREFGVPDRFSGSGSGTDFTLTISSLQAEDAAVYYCQQYHRLPLSFGGGTKVEIK,n.d. n.d. n.d.,n.d.,1 of 9 (3.24)
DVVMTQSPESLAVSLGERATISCKSSQSVLYCGRNKNSVAWYQQKAGQPPKLLIYWASTRESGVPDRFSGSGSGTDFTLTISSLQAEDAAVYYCQQYHRLPLHFGGGTKVEIK,n.d. n.d. n.d.,n.d.,2 of 9 (3.05)
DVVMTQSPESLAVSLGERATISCKSSQSVLYESRNKTSAAWYQQKAGQPPKLLIYWASTIESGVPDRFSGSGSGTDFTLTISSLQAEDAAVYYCQQYHRLPLSFGGGTKVEIK,4.31 n.d. 3.24,3.78,4 of 9 (4.68)
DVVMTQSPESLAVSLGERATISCKSSQSVLYESFNKKSVAWYQQKAGQPPKLLIYWASTRESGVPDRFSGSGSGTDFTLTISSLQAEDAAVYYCQQYKRLPLSFGGGTKVEIK,1.63 1.90 1.91,1.82,3 of 9 (4.15)
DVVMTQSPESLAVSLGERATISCKSSQSVLYESRNKNSVAWYQQKAGQPPKLLIYWASTRVSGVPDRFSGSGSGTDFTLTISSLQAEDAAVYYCSIYHRLPLSFGGGTKVEIK,n.d. n.d. n.d.,n.d.,0 of 9
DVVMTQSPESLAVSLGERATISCKSSQSVHYESRNKNFVAWYQQKAGQPPKLLIYWASTRESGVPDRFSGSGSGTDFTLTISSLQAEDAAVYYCQQYDRLPLSFGGGTKVEIK,5.06 2.74 2.87,3.56,2 of 9 (3.67)
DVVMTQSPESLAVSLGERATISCKYSQSVLYESRNKNQVAWYQQKAGQPPKLLIYWASTRESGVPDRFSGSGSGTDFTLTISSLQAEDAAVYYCQQYHRLILSFGGGTKVEIK,1.21 1.52 1.80,1.51,1 of 9 (2.71)
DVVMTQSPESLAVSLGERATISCKSSGSVLYNSRNINSVAWYQQKAGQPPKLLIYWASTRESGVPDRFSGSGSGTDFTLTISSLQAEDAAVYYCQQYHRLPLSFGGGTKVEIK,0.23 0.93 0.45,0.54,1 of 9 (3.20)
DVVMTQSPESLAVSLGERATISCKSIQSVLYWSRNKNSVAWYQQKAGQPPKLLIYWASTRESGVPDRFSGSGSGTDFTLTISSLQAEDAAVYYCQQYCRLPLSFGGGTKVEIK,3.29 2.64 2.94,2.96,1 of 9 (2.91)
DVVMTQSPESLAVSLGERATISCKSSQSVLYESRNKNSVCWYQQKAGQPPKLLIYNASKRESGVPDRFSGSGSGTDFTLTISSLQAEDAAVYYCQQYHRLPLSFGGGTKVEIK,0.67 0.95 0.76,0.80,2 of 9 (5.16)

Second part, the sequence after the result:

"replicates, log10 nM","mean, log10 nM",signal with controls,VL
-0.16 0.24 -0.03,0.02,4 of 9 (4.69),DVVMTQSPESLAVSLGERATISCKFSQGVLYESRNKNSVAWYQQKAGQPPKLLIYWASTRESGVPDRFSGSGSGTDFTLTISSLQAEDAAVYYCQQYHRCPLSFGGGTKVEIK
n.d. n.d. n.d.,n.d.,0 of 9,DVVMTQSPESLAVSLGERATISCKSSQSVLYFSRNKNVVAWYQQKAGQPPKLLIYWASTRESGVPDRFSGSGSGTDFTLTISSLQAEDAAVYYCGQYHRLPLSFGGGTKVEIK
n.d. 3.26 n.d.,3.26,0 of 9,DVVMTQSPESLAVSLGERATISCKSSQSVLYESRNKNSVAWYQQKAGQPPKLLIYWRSRRESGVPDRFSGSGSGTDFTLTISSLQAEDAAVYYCQQYHALPLSFGGGTKVEIK
4.36 n.d. n.d.,4.36,3 of 9 (4.32),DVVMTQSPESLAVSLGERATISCKSWQSVLYPSRNKNSVAWYQQKAGQPPKLLIYWASTRESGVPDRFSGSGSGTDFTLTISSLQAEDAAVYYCQQYHRVPLSFGGGTKVEIK
2.06 1.76 2.05,1.96,6 of 9 (4.59),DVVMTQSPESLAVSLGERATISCKSSQSVLYKSRMKNSVAWYQQKAGQPPKLLIYHASTRESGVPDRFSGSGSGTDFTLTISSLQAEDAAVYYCQQYHRLPLSFGGGTKVEIK
2.39 2.52 2.16,2.36,6 of 9 (3.77),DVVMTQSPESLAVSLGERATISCKSSQSVEWESRNKNSVAWYQQKAGQPPKLLIYWRSTRESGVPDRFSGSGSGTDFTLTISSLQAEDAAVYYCQQYHRLPLSFGGGTKVEIK
2.24 n.d. 4.85,3.54,1 of 9 (4.40),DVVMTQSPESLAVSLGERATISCKSSQSVLYASRNKNFVAWYQQKAGQPPKLLIYWASTRESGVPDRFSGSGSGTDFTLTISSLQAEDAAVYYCQQYHRCPLSFGGGTKVEIK
n.d. n.d. n.d.,n.d.,0 of 9,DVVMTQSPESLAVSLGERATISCKSSQSVLYESRNKNSPAWYQQKAGQPPKLLIYWASGRESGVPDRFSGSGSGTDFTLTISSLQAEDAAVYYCTQYHRLPLSFGGGTKVEIK
1.24 1.54 1.33,1.37,0 of 9,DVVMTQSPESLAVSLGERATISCKSSQFVLYESDNKNSVAWYQQKAGQPPKLLIYWMSTRESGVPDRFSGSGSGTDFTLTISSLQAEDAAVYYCQQYHRLPLSFGGGTKVEIK
n.d. 3.19 n.d.,3.19,2 of 9 (3.71),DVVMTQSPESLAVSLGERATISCKSSQSVLDESRNKNSVMWYQQKAGQPPKLLIYWASTRESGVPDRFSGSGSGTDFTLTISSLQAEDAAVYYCMQYHRLPLSFGGGTKVEIK
0.97 1.24 1.10,1.10,3 of 9 (3.87),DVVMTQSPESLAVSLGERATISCKSSQSVSYESRNKNSVAWYQQKAGQPPKLLIYYASTRESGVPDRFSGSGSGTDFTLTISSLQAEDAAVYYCLQYHRLPLSFGGGTKVEIK
n.d. n.d. n.d.,n.d.,5 of 9 (4.54),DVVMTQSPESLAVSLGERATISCKSSQSVLYESRNKNSVAWYQQKAGQPPKLLIYWAVTREDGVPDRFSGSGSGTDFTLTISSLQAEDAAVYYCQQYHRLPDSFGGGTKVEIK
n.d. n.d. n.d.,n.d.,0 of 9,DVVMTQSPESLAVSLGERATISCKSSQSVLYESRNKFSYAWYQQKAGQPPKLLIYWASTRESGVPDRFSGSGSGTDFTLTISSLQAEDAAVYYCQQYHRLPASFGGGTKVEIK